Among the data in patent publication US9119845B2, “Method for the treatment of neurological disorders by enhancing the activity of beta-glucocerebrosidase” (Amicus Therapeautics, Inc., priority 2006, dated 2015) are IC50 values, retold here.

The chains behind the UniProt entries cited, without tags or fusion partners. Residues count along the entry.
UniProt P04062, 40-536: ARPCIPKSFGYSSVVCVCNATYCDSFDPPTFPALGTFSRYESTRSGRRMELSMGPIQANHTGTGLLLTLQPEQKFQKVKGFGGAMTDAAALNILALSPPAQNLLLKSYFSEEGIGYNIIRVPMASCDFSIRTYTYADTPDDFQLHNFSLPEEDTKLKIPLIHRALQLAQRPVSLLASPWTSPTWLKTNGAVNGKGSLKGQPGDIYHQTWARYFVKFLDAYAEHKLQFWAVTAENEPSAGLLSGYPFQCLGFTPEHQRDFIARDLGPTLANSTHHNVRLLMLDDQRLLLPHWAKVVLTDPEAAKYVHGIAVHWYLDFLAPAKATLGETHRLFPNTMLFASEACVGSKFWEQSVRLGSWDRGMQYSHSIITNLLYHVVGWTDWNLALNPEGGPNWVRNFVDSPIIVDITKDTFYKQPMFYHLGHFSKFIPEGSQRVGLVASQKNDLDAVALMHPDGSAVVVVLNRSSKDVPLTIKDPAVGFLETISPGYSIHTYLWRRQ

By IC50 is commonly meant the concentration that inhibits the measured activity by half. The low end stands for higher potency, the high end for lower potency.

In this assay the target is GCase (Homo sapiens (Human), UniProt P04062). Description: biochemical.
Regarding `CCCCCCCN1C[C@H](CO)[C@@H](O)[C@H](O)C1` [Compound 3, (3R,4R,5R)-1-heptyl-5-(hydroxymethyl)piperidine-3,4-diol], the IC50 is 41.7 ± 3.05 µM.
Take `CC(C)=CCN1C[C@H](CO)[C@@H](O)[C@H](O)C1` [Compound 4, (3R,4R,5R)-5-(hydroxymethyl)-1-(3-methylbut-2-enyl)piperidine-3,4-diol]: the IC50 is 4 ± 0.035 µM.
Compound `COCCN1C[C@H](CO)[C@@H](O)[C@H](O)C1` [Compound 5, (3R,4R,5R)-5-(hydroxymethyl)-1-(2-methoxyethyl)piperidine-3,4-diol] registered an IC50 of 5.99 ± 0.11 µM.
The value for `OC[C@H]1CN(Cc2ccccc2)C[C@@H](O)[C@@H]1O` [Compound 6, (3R,4R,5R)-1-benzyl-5-(hydroxymethyl)piperidine-3,4-diol] was 200 ± 61.8 µM; that for `Cc1ccccc1CN1C[C@H](CO)[C@@H](O)[C@H](O)C1` [Compound 7, (3R,4R,5R)-5-(hydroxymethyl)-1-(2-methylbenzyl)piperidine-3,4-diol] was 69.5 ± 8.18 µM; that for `Cc1ccc(CN2C[C@H](CO)[C@@H](O)[C@H](O)C2)cc1` [Compound 9, (3R,4R,5R)-5-(hydroxymethyl)-1-(4-methylbenzyl)piperidine-3,4-diol] was 130 ± 14.7 µM.
The value for `Nc1ccc(CN2C[C@H](CO)[C@@H](O)[C@H](O)C2)cc1` [Compound 12, (3R,4R,5R)-1-(4-aminobenzyl)-5-(hydroxymethyl)piperidine-3,4-diol] was 9.36 ± 1.16 µM; that for `OC[C@H]1CN(CC2CCOCC2)C[C@@H](O)[C@@H]1O` [Compound 15, (3R,4R,5R)-5-(hydroxymethyl)-1-((tetrahydro-2H-pyran-4-yl)methyl)piperidine-3,4-diol] was 49.2 ± 5.5 µM.
`OC[C@H]1CN(Cc2ccco2)C[C@@H](O)[C@@H]1O` [Compound 17] returned an IC50 of 280 ± 62.6 µM.
Then `OC[C@H]1CN(Cc2cccs2)C[C@@H](O)[C@@H]1O` [Compound 18, (3R,4R,5R)-5-(hydroxymethyl)-1-(thiophen-2-ylmethyl)piperidine-3,4-diol], with 27.6 ± 0.49 µM; and `OC[C@H]1CN(Cc2ccncc2)C[C@@H](O)[C@@H]1O` [Compound 19, (3R,4R,5R)-5-(hydroxymethyl)-1-(pyridin-4-ylmethyl)piperidine-3,4-diol], with 19.3 ± 1.24 µM; and `CC(C)CCCN1C[C@H](CO)[C@@H](O)[C@H](O)C1` [Compound 24, (3R,4R,5R)-5-(hydroxymethyl)-1-(4-methylpentyl)piperidine-3,4-diol], with 2.13 ± 0.17 µM.
